Test results taken from patent USRE47221E1, “Tricyclic compounds” (AbbVie Inc., priority 2009, dated 2019).

Sequences of proteins named here, by UniProt entry; tags and fusion partners are left off. Residues count along the entry.
UniProt P52333, 811-1103 limits assumed: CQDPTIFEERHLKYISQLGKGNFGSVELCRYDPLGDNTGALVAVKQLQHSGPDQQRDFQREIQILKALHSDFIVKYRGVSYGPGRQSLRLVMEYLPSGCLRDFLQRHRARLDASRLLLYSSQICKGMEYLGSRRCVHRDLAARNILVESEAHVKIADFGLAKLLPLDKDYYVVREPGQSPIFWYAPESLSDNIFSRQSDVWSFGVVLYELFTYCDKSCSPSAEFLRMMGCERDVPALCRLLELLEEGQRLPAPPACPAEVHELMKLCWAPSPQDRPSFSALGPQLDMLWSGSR

Target: Jak3 (Homo sapiens, UniProt P52333)
Assay: Jak3 enzyme data for selected compounds
Format: biochemical
Conditions: read-out: JAK3 enzyme IC50

Structure (SMILES) | IC50 [nM]
C[C@@H]1C[C@H](NS(=O)(=O)N2CCC[C@@H]2C(F)(F)F)C[C@@H]1c1ncc2cnc3[nH]ccc3n12 | < 100
O=S(=O)(CCC(F)(F)F)N1CCCCC12CN(c1ncc3cnc4[nH]ccc4n13)C2 | > 1000
